# According to ChEMBL document CHEMBL1140106, “Blocking estrogen signaling after the hormone: pyrimidine-core inhibitors of estrogen receptor-coactivator binding” (J Med Chem, 2008):
# By UniProt entry, the sequences of proteins in these tests, tags left out.
# UniProt P03372, whole entry: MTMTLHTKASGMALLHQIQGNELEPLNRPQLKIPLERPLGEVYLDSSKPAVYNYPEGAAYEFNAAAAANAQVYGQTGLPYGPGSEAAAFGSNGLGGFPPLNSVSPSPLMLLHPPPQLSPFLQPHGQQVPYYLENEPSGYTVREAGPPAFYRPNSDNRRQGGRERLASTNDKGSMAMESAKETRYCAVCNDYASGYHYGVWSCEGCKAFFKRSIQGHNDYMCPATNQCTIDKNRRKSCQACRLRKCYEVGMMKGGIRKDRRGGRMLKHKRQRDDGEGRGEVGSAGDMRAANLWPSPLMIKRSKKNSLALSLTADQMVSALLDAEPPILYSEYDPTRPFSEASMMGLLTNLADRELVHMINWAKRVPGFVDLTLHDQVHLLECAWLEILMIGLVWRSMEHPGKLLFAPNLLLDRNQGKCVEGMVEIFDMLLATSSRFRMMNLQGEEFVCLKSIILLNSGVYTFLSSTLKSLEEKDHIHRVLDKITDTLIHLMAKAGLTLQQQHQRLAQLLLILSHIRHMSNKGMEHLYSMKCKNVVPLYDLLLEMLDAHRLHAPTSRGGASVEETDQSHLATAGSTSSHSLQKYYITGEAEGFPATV
# UniProt Q92731, whole entry: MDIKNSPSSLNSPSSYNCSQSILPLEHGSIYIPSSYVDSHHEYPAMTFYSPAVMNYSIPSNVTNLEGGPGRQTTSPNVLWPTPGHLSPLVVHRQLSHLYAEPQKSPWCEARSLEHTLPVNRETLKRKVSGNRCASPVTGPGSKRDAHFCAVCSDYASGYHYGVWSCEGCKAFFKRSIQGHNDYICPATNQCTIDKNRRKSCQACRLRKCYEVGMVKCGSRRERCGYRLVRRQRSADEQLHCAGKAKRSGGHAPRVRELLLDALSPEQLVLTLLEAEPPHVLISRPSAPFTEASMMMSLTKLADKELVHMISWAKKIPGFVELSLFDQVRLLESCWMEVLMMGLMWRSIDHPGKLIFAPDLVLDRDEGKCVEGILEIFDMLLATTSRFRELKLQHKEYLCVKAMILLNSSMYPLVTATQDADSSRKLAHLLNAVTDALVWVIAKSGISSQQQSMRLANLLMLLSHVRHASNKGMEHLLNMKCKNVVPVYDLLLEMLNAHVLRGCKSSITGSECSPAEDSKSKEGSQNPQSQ
# How the values were obtained:
# [1] = biological target: T1, Estrogen receptor (Homo sapiens, UniProt P03372); test: Binding affinity to ERalpha assessed as inhibition of fluorescein-labeled nuclear receptor domain of steroid receptor coactivator 3 by TR-FRET assay
# In short: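 Fluorescein-SRC-3-NRD (50 nM) was then added for 1 h at room temperature in the dark. Buffer: 20 mM Tris pH 7.5, 0.01% NP40, 50 mM NaCl. SRC-1 Box II peptide served as positive control.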
# [2] = biological target: Estrogen receptor beta (Homo sapiens, UniProt Q92731); test: Binding affinity to ERbeta assessed as inhibition of fluorescein-labeled nuclear receptor domain of steroid receptor coactivator 3 by TR-FRET assay
# [3] = biological target: T1, Estrogen receptor; test: Antagonist activity at ERalpha in human HEC1 cells assessed as inhibition of estrogen-induced transcriptional activity after 24 hrs by reporter gene assay; assay type: functional, cell-based, HEC-1
# In short: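 HEC-1 cells, which lack endogenous ER, were lipofectin-transfected with full-length ERα vector, 2ERE-luciferase reporter and pCMV β-gal as internal control. After 6 h the medium was changed to 5% charcoal-dextran-treated calf serum with ligands.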
# [4] = biological target: T1, Estrogen receptor; test: Binding affinity to ERalpha assessed as inhibition of steroid receptor coactivator 2 interaction by fluorescence polarization assay
SMILES,Ki [1] [µM],Ki [2] [µM],IC50 [3] [µM],Ki [4] [µM]
CC(C)CNc1cc(/C=C/c2ccccc2)nc(NCC(C)C)n1,7.5,–,6.9,–
CC(C)CCc1cc(NCc2cccc3ccccc23)nc(NCC(C)C)n1,2.4,–,6.7,–
CC(C)CNc1nc(CCc2cccc3ccccc23)cc(N(C)CC(C)C)n1,2.4,–,4.4,–

# Continued by falling Ki [1], values first:
Ki [1] [µM],Ki [2] [µM],IC50 [3] [µM],Ki [4] [µM],SMILES
16,> 1000,13,32,CCCCc1cc(NCCC)nc(NCCC)n1
10,–,7.3,–,CCc1cc(NCC(C)C)nc(NCC(C)C)n1
8.4,–,5.5,–,CC(C)CNc1nc(CCc2ccccc2)cc(N(C)CC(C)C)n1
7.6,–,4.5,–,CC(C)CNc1cc(CCc2ccccc2)nc(NCc2ccccc2)n1
